The values that follow come from patent publication US12139488B2, “Pyrido[3,2-d]pyrimidine compounds uses thereof for treating a proliferative disease” (Universite de Montreal, priority 2021, dated 2024).

Protein sequences, listed by entry. Tags and fused reporters are not part of them.
UniProt P10398, whole entry: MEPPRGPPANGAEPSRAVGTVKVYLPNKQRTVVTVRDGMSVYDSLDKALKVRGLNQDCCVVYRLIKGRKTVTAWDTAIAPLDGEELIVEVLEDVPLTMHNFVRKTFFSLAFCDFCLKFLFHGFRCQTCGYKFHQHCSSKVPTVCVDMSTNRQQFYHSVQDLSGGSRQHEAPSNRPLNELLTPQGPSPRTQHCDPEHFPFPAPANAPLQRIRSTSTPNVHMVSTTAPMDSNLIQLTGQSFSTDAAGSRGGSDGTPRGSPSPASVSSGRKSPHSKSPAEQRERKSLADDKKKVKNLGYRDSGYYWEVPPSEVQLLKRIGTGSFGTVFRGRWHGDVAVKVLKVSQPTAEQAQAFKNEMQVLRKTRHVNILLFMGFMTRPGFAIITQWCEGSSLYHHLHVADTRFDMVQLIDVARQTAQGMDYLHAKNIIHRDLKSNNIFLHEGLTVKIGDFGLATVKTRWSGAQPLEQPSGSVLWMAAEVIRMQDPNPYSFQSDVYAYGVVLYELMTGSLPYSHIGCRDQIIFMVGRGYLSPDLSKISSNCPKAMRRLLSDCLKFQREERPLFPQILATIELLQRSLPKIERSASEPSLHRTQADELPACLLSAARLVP

In assay [1] the test system is pERK in Calu-6 cells (KRAS Q61K). Nature of the assay: Phospho-ERK inhibition (AlphaLISA), Calu-6. The settings on record: for Calu6 pERK % Ymin: Calu6, value in parentheses; for IC50: read-out: Calu6 pERK IC50, Calu6. How it is done: All cancer cell lines (A375, A101D, A2058, RKO, HT29 SK-MEL 30, IPC298, HepG2, HCT-116, Lovo, SWV620, SW480, NCI-H358, NCI-H2122, Calu-6, NCIH2087, NCIH1755, NCIH1666 and Mewo) were obtained from ATCC and cultured in RPMI-1640 medium (Gibco) supplemented with 5% heat inactivated fetal bovine serum (FBS, Wisent) at 37° C. under 5% CO2. Cells were maintained in T175 flasks (Greiner). They were passaged by removing the culture medium, washing once in 10 mL of room temperature Phosphate Buffered Saline (PBS; Wisent) and incubating at 37° C. with 2 mL of 0.05% Trypsin (Thermo-Fisher). Trypsin was then inactivated by adding complete growth medium and the cells were then replated in a T175 culture dish at the appropriate dilution. All cell lines were routinely tested for mycoplasma contamination. Tissue type and mutational status of each cell line can be found in Table B.
AlphaLISA® SureFire® Ultra™ p-ERK 1/2 (Thr202/Tyr204) analysis was conducted on cells plated in 100 μL of complete RPMI-1640 growth medium in 96-well flat-bottomed transparent dishes (Costar) at a density indicated in Table C. Cells were maintained overnight at 37° C. under 5% CO2 before treatment with compounds' dilution series for one hour. The cell density in cells/cm^2 corresponds to cell number divided by the area of one well of a 96-well plate ([…]).
In a dilution series 100 μL/well of test substance dilution prepared in complete RPMI-1640 growth media was added to the cells. The dilution series is selected so that ten concentrations cover a range from 10 μM to 0.33 nM. If necessary the initial concentration of 10 μM is increased to 100 μM or lowered to 1 μM (as in the case of A375 and H1666 cells, which are generally more sensitive to the compounds) and further dilution is carried out accordingly. The final concentration of DMSO in the assay is set at 0.5%.
After treatment, media was removed and cells were lysed in 50 μL of 1× AlphaScreen Ultra Lysis Buffer (Perkin Elmer). The AlphaLISA® SureFire® Ultra™ p-ERK 1/2 (Thr202/Tyr2O4) (PerkinElmer) reactions were performed with 5 μL of cell lysate according to the manufacturer's specifications in 384-well proxyplates (Perkin Elmer) followed by overnight incubation of the reactions at room temperature in a humidified chamber. After completion of the reactions, the signals were recorded on an EnVision plate reader (Perkin Elmer) using built in AlphaLISA® settings.
The effect of each compound dilution on the pERK signal was expressed in % inhibition and calculated as follows. An internal 100% inhibition control ([…] trametinib, cat #HY-10999; MedChem Express; CAS #871700-17-3) was included in each plate and used as a measure of pERK background. First, the value obtained for trametinib was subtracted from each data point. The average of DMSO (vehicle) controls (set as 0% inhibition) was established and used to calculate % inhibition: % inhibition=100*(1-((pERK signalcompound)/(pERK signalDMSO)))
The ability of each compound to inhibit pERK signal was expressed as an IC50 value obtained by plotting the inhibition values for each data point of a dilution series and fitting the obtained curves using a log(agonist) versus response-variable slope (four parameters) function using GraphPadPrism (V7.0) or Dotmatics Screening Ultra platform.
When present, paradoxical pERK induction is inferred from the negative % inhibition values observed in the pERK IC50 curves of a compound.

A further assay concerns the target ARAF (Homo sapiens (Human), UniProt P10398). Nature of the assay: ARAF kinase activity assay (AlphaLISA p-MEK 1/2 detection). The following applies: read-out: Kinase IC50 (nM) ARAF. How it is done:
Compound preparation: solid samples of each substances in 1 dram vials were suspended in DMSO (Fisher Scientific) at a stock concentration of 20 mM. Stocks were kept at −20° C. and protected from light. If solubility of the compound at 20 mM appeared to be an issue, the initial concentration of the DMSO stock was changed to 10 mM or 5 mM.
In vitro enzymatic reactions were used for evaluating compounds intrinsic activity against BRAF, CRAF and ARAF. For BRAF and CRAF, 0.375 nM of purified GST-tagged kinases (cat #B4062-10 UG and cat #R1656-10 UG respectively from Millipore Sigma) were incubated with 75 nM of kinase-dead MEK1 substrate (cat #40075; BPS Bioscience) in the presence of 10 μM of Ultrapure ATP (cat #V9102; Promega; part V915A) with and without the test compound in a buffer containing 50 mM HEPES pH 7.5, 10 mM MgCl2, 1 mM EDTA, 0.01% Brij-35 and 2 mM DTT. Separate reactions were performed with the MEK1 substrate and ATP as a blank control. ARAF, kinase reactions were rigorously the same with the exception that kinase concentration was raised to 3.75 nM (cat #1768-0000-1; Reaction Biology).
For compound treatment, 5 μL/well of test substance solution are placed in a 384-well proxyplate (Perkin Elmer) and mixed with 2× concentrated kinase reactions. The dilution series is selected so that nine concentrations cover a range from 100 nM to 0.01 nM. […] The final concentration of DMSO in the assay is set at 0.05%.
ARAF kinase reactions were carried out for a total of 2 hours at 30° C. and then stopped by addition of EDTA at a final concentration of 40 mM. Reactions were then detected using the AlphaLISA® SureFire® Ultra™ p-MEK 1/2 (Ser218/222) (PerkinElmer) kit. Reactions were performed with 5 μL of kinase reaction according to the manufacturer's specifications in 384-well proxyplates (Perkin Elmer) followed by overnight incubation of the AlphaLISA® reactions at room temperature in a humidified chamber. After completion of the detection reactions, the signals were recorded on a Synergy Neo2 plate reader (Biotek) equipped with AlphaLISA® filters. The effect of each compound dilution on the pMEK signal generated by ARAF reactions was expressed in % inhibition and calculated as follows. An internal 100% inhibition control (average of luminescence in kinase reactions comprising kinase dead MEK1 substrate alone) was included in each plate to measure of pMEK background and was subtracted from each data point. The average of DMSO (vehicle) controls (set as 0% inhibition) was also established and used to calculate % inhibition: % inhibition=100*(1−((pMEK signalcompound)/(pMEK signalDMSO)))
IC50 values were obtained by plotting the kinase inhibition values and fitting the dose-activity curves using a log(agonist) versus response-variable slope (four parameters) function using either GraphPadPrism (V7.0) or Dotmatics Screening Ultra platform. Standards included in the ARAF kinase assay were Belvarafenib (MedChem Express cat #HY-109080; CAS #1446113-23-0), LXH254 (MedChem Express cat #HY-112089; CAS #1800398-38-2) and BGB283 (cat #HY-18957; CAS #1446090-79-4).

With `O=S(=O)(Nc1ccc(F)c(Nc2ncnc3ccc(-n4cnc5c(N6CCC(O)(C(F)(F)F)CC6)cccc54)nc23)c1F)c1cccc(Cl)c1Cl`, in assay [1], the “Calu6 pERK % Ymin” value is 1% and the IC50 was in the range of 30 to 300 nM. Also, at ARAF, the IC50 was over 10 nM.
In the same order, the values of `COCCOc1cccc2c1nnn2-c1ccc2ncnc(Nc3c(F)ccc(NS(=O)(=O)c4cccc(Cl)c4Cl)c3F)c2n1` are −11%, 30 to 300 nM and 1 to 10 nM.
For `CS(=O)(=O)C1CCN(c2cccc3c2nnn3-c2ccc3ncnc(Nc4c(F)ccc(NS(=O)(=O)c5cccc(Cl)c5Cl)c4F)c3n2)CC1`, in assay [1], the “Calu6 pERK % Ymin” value is reported as −7%. Further, the IC50 in assay [1] is under 30 nM; on ARAF, 1 to 10 nM.
Regarding `O=S(=O)(CCCN1CCOCC1)c1cn(-c2ccc3ncnc(Nc4c(F)ccc(NS(=O)(=O)c5cccc(Cl)c5Cl)c4F)c3n2)c2ccccc12`, in assay [1], the “Calu6 pERK % Ymin” value is 4% and the IC50 lay in the range of 30 to 300 nM. The IC50 on ARAF lay in the range of 1 to 10 nM.
As for `COc1ccc(S(=O)(=O)Nc2ccc(F)c(Nc3ncnc4ccc(-n5cc(S(=O)(=O)N(C)CCN(C)C)c6ccccc65)nc34)c2F)c(C)c1F`, the “Calu6 pERK % Ymin” value in assay [1] is reported as −7%. For the same compound, the 50% inhibitory concentration (IC50) in assay [1] was in the range of 30 to 300 nM; at ARAF, 1 to 10 nM.
Taken in the same sequence, the figures for `CCC1(O)CCN(c2cccc3c2ncn3-c2ccc3ncnc(Nc4c(F)ccc(NS(=O)(=O)c5cccc(Cl)c5Cl)c4F)c3n2)CC1` were −5%, 30 to 300 nM and 1 to 10 nM.
In the case of `CN(CCN1CCOCC1)S(=O)(=O)c1cn(-c2ccc3ncnc(Nc4c(F)ccc(NS(=O)(=O)c5cccc(Cl)c5Cl)c4F)c3n2)c2ccccc12`, in assay [1], the “Calu6 pERK % Ymin” value was determined as 10% and the IC50 is under 30 nM. For the same compound, at ARAF, the IC50 lay within 1 to 10 nM.
Taken in the same sequence, the figures for `Cc1c(F)cccc1S(=O)(=O)Nc1ccc(F)c(Nc2ncnc3ccc(-n4cnc5c(-c6cccnc6)cccc54)nc23)c1F` were 3%, 30 to 300 nM and 1 to 10 nM.
Take `Cc1c(Cl)cccc1S(=O)(=O)Nc1ccc(F)c(Nc2ncnc3ccc(-n4cnc5c(N)cccc54)nc23)c1F`: in assay [1], the “Calu6 pERK % Ymin” value is listed as 6% and the IC50 lay within 30 to 300 nM. On ARAF, the IC50 lay within 1 to 10 nM.
Taken in the same sequence, the figures for `O=S(=O)(Nc1ccc(F)c(Nc2ncnc3ccc(-n4nnc5ccccc54)nc23)c1F)c1cccc(Cl)c1Cl` were −6%, 30 to 300 nM and 1 to 10 nM.
Taken in the same sequence, the figures for `Cc1c(Cl)cccc1S(=O)(=O)Nc1ccc(F)c(Nc2ncnc3ccc(-n4cc(C(=O)N5CCN(C)CC5)c5ccccc54)nc23)c1F` were 6%, 30 to 300 nM and 1 to 10 nM.
In the same order, the values of `O=S(=O)(Nc1ccc(F)c(Nc2ncnc3ccc(-n4cnc5c(N6CCC7(CCCC7)CC6)cccc54)nc23)c1F)c1cccc(Cl)c1Cl` are −18%, 30 to 300 nM and 1 to 10 nM.
As to `Cc1c(Cl)csc1S(=O)(=O)Nc1ccc(F)c(Nc2ncnc3ccc(-n4cc(S(=O)(=O)N(C)CCN(C)C)c5ccccc54)nc23)c1F`, in assay [1], the “Calu6 pERK % Ymin” value turned out to be 6%. Further, the figures for the IC50 (in assay [1]; at ARAF) were 30 to 300 nM and under 1 nM, respectively.
